According to ChEMBL document CHEMBL4028905, “A Unique Approach to Design Potent and Selective Cyclic Adenosine Monophosphate Response Element Binding Protein, Binding Protein (CBP) Inhibitors” (J Med Chem, 2017):
pIC50: −log10 of the molar value.

Protein sequences, listed by entry. Tags and fused reporters are not part of them.
UniProt Q92793, whole entry: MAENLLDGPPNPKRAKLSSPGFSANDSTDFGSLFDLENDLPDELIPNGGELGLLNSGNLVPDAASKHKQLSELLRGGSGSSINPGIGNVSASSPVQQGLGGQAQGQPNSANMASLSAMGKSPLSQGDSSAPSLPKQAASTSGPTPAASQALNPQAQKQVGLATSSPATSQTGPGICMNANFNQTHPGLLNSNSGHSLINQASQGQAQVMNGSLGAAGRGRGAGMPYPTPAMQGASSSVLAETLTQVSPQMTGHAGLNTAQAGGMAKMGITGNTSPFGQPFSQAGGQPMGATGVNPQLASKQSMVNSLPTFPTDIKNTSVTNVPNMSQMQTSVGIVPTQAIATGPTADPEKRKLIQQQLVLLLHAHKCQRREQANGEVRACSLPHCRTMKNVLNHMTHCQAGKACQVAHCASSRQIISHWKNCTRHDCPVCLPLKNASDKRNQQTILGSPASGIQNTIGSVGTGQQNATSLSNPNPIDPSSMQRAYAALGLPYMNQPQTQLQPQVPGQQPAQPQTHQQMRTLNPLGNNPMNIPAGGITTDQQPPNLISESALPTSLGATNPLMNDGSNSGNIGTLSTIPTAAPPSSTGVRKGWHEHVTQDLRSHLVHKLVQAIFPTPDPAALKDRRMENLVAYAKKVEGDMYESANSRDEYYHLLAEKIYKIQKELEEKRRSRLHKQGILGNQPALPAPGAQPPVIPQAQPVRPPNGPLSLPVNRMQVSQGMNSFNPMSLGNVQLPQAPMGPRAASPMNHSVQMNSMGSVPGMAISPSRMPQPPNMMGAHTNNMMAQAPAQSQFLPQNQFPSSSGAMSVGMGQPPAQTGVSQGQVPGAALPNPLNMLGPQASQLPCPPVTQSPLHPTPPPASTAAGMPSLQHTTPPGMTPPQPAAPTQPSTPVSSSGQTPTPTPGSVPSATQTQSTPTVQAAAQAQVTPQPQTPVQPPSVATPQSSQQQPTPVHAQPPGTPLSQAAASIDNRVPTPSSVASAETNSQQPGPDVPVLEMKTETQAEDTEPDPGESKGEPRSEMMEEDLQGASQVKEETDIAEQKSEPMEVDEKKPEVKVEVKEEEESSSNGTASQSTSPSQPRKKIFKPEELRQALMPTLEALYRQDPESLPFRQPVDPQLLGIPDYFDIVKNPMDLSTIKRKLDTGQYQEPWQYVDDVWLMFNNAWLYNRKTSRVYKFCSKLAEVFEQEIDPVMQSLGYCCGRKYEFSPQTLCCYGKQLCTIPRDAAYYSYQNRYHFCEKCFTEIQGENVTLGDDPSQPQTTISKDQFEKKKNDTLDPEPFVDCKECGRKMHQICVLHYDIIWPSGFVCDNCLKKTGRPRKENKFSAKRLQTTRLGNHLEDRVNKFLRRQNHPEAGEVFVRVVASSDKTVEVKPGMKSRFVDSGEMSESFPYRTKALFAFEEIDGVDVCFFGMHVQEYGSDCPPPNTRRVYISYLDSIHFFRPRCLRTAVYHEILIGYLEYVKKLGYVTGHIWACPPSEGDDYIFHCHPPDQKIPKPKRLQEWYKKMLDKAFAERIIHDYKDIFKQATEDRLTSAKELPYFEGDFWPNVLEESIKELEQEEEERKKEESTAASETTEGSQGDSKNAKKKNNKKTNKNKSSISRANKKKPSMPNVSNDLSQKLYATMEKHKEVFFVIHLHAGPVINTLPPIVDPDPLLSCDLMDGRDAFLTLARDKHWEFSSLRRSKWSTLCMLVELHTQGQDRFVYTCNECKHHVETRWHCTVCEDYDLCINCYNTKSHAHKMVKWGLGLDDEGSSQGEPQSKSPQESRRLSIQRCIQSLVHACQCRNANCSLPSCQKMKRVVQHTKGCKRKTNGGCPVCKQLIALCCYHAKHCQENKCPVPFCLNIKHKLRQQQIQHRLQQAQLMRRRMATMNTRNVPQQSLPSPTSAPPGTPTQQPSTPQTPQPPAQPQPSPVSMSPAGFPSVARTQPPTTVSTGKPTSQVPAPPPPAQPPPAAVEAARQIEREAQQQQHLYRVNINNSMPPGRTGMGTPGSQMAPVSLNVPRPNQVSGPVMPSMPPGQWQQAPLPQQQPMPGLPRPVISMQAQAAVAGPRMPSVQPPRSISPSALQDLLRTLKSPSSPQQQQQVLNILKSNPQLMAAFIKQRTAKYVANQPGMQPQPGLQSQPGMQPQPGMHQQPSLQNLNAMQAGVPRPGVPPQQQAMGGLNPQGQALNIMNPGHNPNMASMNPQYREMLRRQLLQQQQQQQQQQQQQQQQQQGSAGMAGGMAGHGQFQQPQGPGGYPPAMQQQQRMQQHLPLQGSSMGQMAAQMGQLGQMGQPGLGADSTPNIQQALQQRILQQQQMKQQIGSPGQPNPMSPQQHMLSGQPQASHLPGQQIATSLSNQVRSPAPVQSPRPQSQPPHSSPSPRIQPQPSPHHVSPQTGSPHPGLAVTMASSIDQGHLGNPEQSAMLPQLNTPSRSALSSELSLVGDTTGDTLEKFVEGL

Molecular target: CREB-binding protein (Homo sapiens, UniProt Q92793)
Test: Inhibition of His tagged recombinant CBP (unknown origin) by TR-FRET assay
Procedure, shortened: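 Recombinant His-tagged bromodomains purified by Ni affinity, tag removed with thrombin, checked by mass spectrometry. Assay is TR-FRET competition against a biotinylated small-molecule ligand. Normalized inhibition vs concentration fit to 4-parameter Hill equation; […] for optimization.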

With `C[C@H]1Nc2c(cccc2N2CCCc3cc(-c4cnn(C)c4)c(C(F)F)cc32)NC1=O` the pIC50 was 7.21.
